The data set is described as follows: Measurement of logP values by HPLC on reversed phase columns (EEC directive 79/831 Annex V.A8). The class given is physicochemical. Particulars: pH 2.7, 0.1% formic acid in water / acetonitrile gradient 10% to 95%.
Molecule `CCCCCC(=O)Nc1cccc(CON=C(c2ccc(OC(F)(F)F)cc2C)c2nnnn2C)n1` (single isomer, unassigned) [Example 105] gave a logp of 4.65.

Regarding `CCCCCOC(=O)Nc1cccc(CON=C(c2cccc(C(F)(F)F)c2F)c2nnnn2C)n1` [Example 25], the logp is given as 4.65.

`CC(C)CC(=O)Nc1cccc(CON=C(c2cc(F)cc(C(F)(F)F)c2)c2nnnn2C)n1` [Example 30] registered a logp of 4.01.

`CCCCCC(=O)Nc1cccc(CON=C(c2cc(C(F)(F)F)ccc2C)c2nnnn2C)n1` [Example 31]: the logp stood at 4.01.

The molecule `CCCCCC(=O)Nc1cccc(CON=C(c2ccc(C)c(C(F)(F)F)c2)c2nnnn2C)n1` [Example 50] displayed a logp of 4.41.

Turning to `Cc1cc(C(=NOCc2cccc(NC(=O)CCC3CCCCC3)n2)c2nnnn2C)ccc1F` [Example 54], the logp was 4.92.

Consider `Cc1ccc(C(=NOCc2cccc(NC(=O)CC(C)C)n2)c2nnnn2C)cc1C(F)(F)F` [Example 68], for which the logp worked out at 4.01.

Turning to `CCCCCOC(=O)Nc1cccc(CON=C(c2ccc(C(F)(F)F)c(F)c2)c2nnnn2C)n1` [Example 76], the logp was found to be 4.92.

In the case of `CCCCCC(=O)Nc1cccc(CON=C(c2ccc(Cl)c(C(F)(F)F)c2)c2nnnn2C)n1` [Example 77], the logp worked out at 4.67.

The molecule `CCCCCOC(=O)Nc1cccc(CON=C(c2cc(C(F)(F)F)ccc2Cl)c2nnnn2C)n1` [Example 80] displayed a logp of 4.92.

Molecule `CCCCCOC(=O)Nc1cccc(CON=C(c2cc(C)cc(F)c2)c2nnnn2C)n1` [Example 93] gave a logp of 4.65.

Take `CCCCCOC(=O)Nc1cccc(CON=C(c2ccc(F)c(C)c2)c2nnnn2C)n1` [Example 94]: the logp is given as 4.65.

In turn, `CCCCCOC(=O)Nc1cccc(CON=C(c2ccc(C)c(F)c2)c2nnnn2C)n1` [Example 95] registered a logp of 4.67.

In turn, `Cc1cc(C(=NOCc2cccc(Br)n2)c2nnnn2C)ccc1F` [Example 160] registered a Log p of 3.65.

The record behind these values is patent US20100286173A1 (priority 2008, published 2010).
